Source: patent publication US4960771A, “Oxazolidinone penetration enhancing compounds” (priority 1988, dated 1990)

Experiments:
[1] = 97% compound with 3% Diazepam; vs 97% DMSO or 72% compound with 25% additional adjuvant; cited from earlier work
[2] = Permeation of Isosorbide Dinitrate (ISDN) from transdermal patch through human stratum corneum (Example 31); settings: no enhancer (Control)
[3] = Permeation of Isosorbide Dinitrate (ISDN) from cream formulations through human stratum corneum (Example 37); settings: 1% ISDN, no enhancer (Control)
[4] = cream, 1% ISDN, no enhancer (Control)

## CN1CCN(C)C1=O [1,3-dimethylimidazolidin-2-one]
[1]
  blood levels of Diazepam: poor blood levels

## O=[N+]([O-])O[C@H]1CO[C@H]2[C@@H]1OC[C@H]2O[N+](=O)[O-]
[2]; 3% ISDN (60%)
  Average Cumulative Amount of ISDN in Micrograms permeating over 51 hours: 476 ± 167 Micrograms
[2]; 3% ISDN (100%)
  Average Cumulative Amount of ISDN in Micrograms permeating over 51 hours: 702.7 ± 57 Micrograms
[3]
  Average Cumulative Amount of ISDN in Micrograms permeating over 51 hours: 897.2 ± 70.7 Micrograms
[4]
  Average Cumulative Amount of ISDN in Micrograms permeating over 51 hours: 759 ± 21 Micrograms

Where two headings read alike, the source gives them in different places.
